The values below come from PubChem BioAssay (NCI).

Test systems include SK-MEL-2 melanoma; EKVX NSCLC; SN12C renal; UO-31 renal; TK-10 renal; ACHN renal; CAKI-1 renal; A498 renal; HL-60(TB) leukemia; CCRF-CEM leukemia; MOLT-4 leukemia; SR leukemia; RPMI-8226 leukemia; OVCAR-8 ovarian; OVCAR-5 ovarian; OVCAR-4 ovarian; SK-OV-3 ovarian; IGROV1 ovarian; OVCAR-3 ovarian; HS 578T breast.
What all share (test): NCI-60 one-dose screen, 48 h (100 = growth as untreated, 0 = no growth, -100 = all killed)
Conditions in all cases: 10 µM unless noted

“And” between values parts separate entries of the source, which are not always exact repeats. Identical values can stand only once. This is a selection; strong and weak results do not stand in their true shares.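 Values shown are percent growth following 48 h exposure of cells in 96-well plates to a single concentration of compound; below 10 was considered active.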 The source made the active and inactive calls.

For the compound `O=S1(=O)CC(Sc2ccccc2)[C@@H](Cl)C1` (some centres undefined), the growth in the experiment with SK-MEL-2 melanoma is inactive: 109%; in the experiment on EKVX NSCLC it was inactive: 104%; in the experiment on SN12C renal, inactive: 99.9%; in the experiment on UO-31 renal it was inactive: 92.1%; in the experiment with TK-10 renal it was inactive: 93.4%; in the experiment with ACHN renal it was inactive: 121%. In addition, the growth in the experiment with CAKI-1 renal is inactive: 102%; with A498 renal, inactive: 82.8%; in the experiment with HL-60(TB) leukemia, inactive: 91.2%; with CCRF-CEM leukemia it was inactive: 98.8%; with MOLT-4 leukemia, inactive: 99.1%; in the experiment on SR leukemia, inactive: 102%. The growth was inactive: 94.5% with RPMI-8226 leukemia; inactive: 100% in the experiment on OVCAR-8 ovarian; inactive: 121% with OVCAR-5 ovarian; inactive: 101% with OVCAR-4 ovarian; inactive: 106% in the experiment on SK-OV-3 ovarian; inactive: 109% with IGROV1 ovarian. Further, the growth with OVCAR-3 ovarian was inactive: 109%; with HS 578T breast, inactive: 97.5%.

On to `CCCCOP(=O)(OCCCC)N1CCCC1C(=O)O` (centres undefined), for which the growth with SK-MEL-2 melanoma is inactive: 122%; in the experiment on EKVX NSCLC, inactive: 93.6%; in the experiment on SN12C renal it was inactive: 98.4%; with UO-31 renal it was inactive: 96.2%; in the experiment on TK-10 renal it was inactive: 98.7%; with ACHN renal it was inactive: 107%. For the same compound, the growth in the experiment with CAKI-1 renal was inactive: 98%; in the experiment on A498 renal it was inactive: 77.9%; in the experiment on HL-60(TB) leukemia, inactive: 77.8%; in the experiment on CCRF-CEM leukemia it was inactive: 103%; with MOLT-4 leukemia it was inactive: 101%; in the experiment on SR leukemia, inactive: 109%. Also, the growth was inactive: 97.1% in the experiment with RPMI-8226 leukemia; inactive: 103% with OVCAR-8 ovarian; inactive: 107% in the experiment with OVCAR-5 ovarian; inactive: 101% with OVCAR-4 ovarian; inactive: 92.8% with SK-OV-3 ovarian; inactive: 114% in the experiment with IGROV1 ovarian. The growth in the experiment on OVCAR-3 ovarian is inactive: 117%; with HS 578T breast it was inactive: 95.7%.

Consider `CC(Cl)CN(CC(C)Cl)C(=O)OCC(N)C(=O)O` (centres undefined), for which the growth with SK-MEL-2 melanoma is inactive: 94.6% and inactive: 83.1%; with EKVX NSCLC, inactive: 107% and inactive: 98.9%; in the experiment on SN12C renal it was inactive: 96.6% and inactive: 92.1%; in the experiment with UO-31 renal, inactive: 80.7% and inactive: 88.7%; with TK-10 renal it was inactive: 101% and inactive: 99.8%; with ACHN renal, inactive: 105% and inactive: 98.9%. The growth in the experiment on CAKI-1 renal is inactive: 95.4%; with A498 renal it was inactive: 104% and inactive: 105%; in the experiment on HL-60(TB) leukemia, inactive: 111% and inactive: 94.3%; in the experiment on CCRF-CEM leukemia, inactive: 96.2% and inactive: 103%; in the experiment with MOLT-4 leukemia it was inactive: 97.3% and inactive: 105%; in the experiment with SR leukemia, inactive: 101% and inactive: 97.2%. The growth with RPMI-8226 leukemia was inactive: 99% and inactive: 115%; with OVCAR-8 ovarian it was inactive: 100% and inactive: 105%; with OVCAR-5 ovarian, inactive: 109% and inactive: 94.2%; in the experiment with OVCAR-4 ovarian, inactive: 108% and inactive: 107%; with SK-OV-3 ovarian, inactive: 94.8% and inactive: 97.2%; in the experiment with IGROV1 ovarian, inactive: 109%. Moreover, the growth was inactive: 114% and inactive: 126% in the experiment on OVCAR-3 ovarian; inactive: 119% in the experiment with HS 578T breast.

On to `Cc1nn(Cc2ccccc2)c(C)c1C1(O)C[C@H](CC#N)OC1=O` (some centres undefined), for which the growth was inactive: 101% in the experiment on SK-MEL-2 melanoma; inactive: 104% with EKVX NSCLC; inactive: 109% in the experiment on SN12C renal; inactive: 109% in the experiment with UO-31 renal; inactive: 158% in the experiment on TK-10 renal; inactive: 109% in the experiment on ACHN renal. Moreover, the growth in the experiment on CAKI-1 renal was inactive: 121%; in the experiment on A498 renal, inactive: 135%; in the experiment on HL-60(TB) leukemia, inactive: 127%; in the experiment with CCRF-CEM leukemia it was inactive: 105%; with MOLT-4 leukemia, inactive: 128%; in the experiment with SR leukemia, inactive: 118%. The growth is inactive: 108% in the experiment with RPMI-8226 leukemia; inactive: 112% in the experiment with OVCAR-8 ovarian; inactive: 107% with OVCAR-5 ovarian; inactive: 115% with OVCAR-4 ovarian; inactive: 113% in the experiment on SK-OV-3 ovarian; inactive: 121% with IGROV1 ovarian. Also, the growth with OVCAR-3 ovarian is inactive: 135%.

Regarding `O=[N+]([O-])c1ccc(Oc2cccc(Oc3ccc([N+](=O)[O-])cc3[N+](=O)[O-])c2)c([N+](=O)[O-])c1`, the growth was inactive: 78% in the experiment on SK-MEL-2 melanoma; inactive: 98.5% with EKVX NSCLC; inactive: 64.1% in the experiment with SN12C renal; inactive: 53.1% in the experiment with UO-31 renal; inactive: 100% in the experiment on TK-10 renal; inactive: 89.9% in the experiment with ACHN renal. For the same compound, the growth is inactive: 82.6% in the experiment with CAKI-1 renal; inactive: 96.5% in the experiment on A498 renal; inactive: 90.2% with HL-60(TB) leukemia; inactive: 14.8% in the experiment with CCRF-CEM leukemia; inactive: 52.4% in the experiment on MOLT-4 leukemia; active: -21.4% in the experiment with SR leukemia. In addition, the growth in the experiment with RPMI-8226 leukemia is inactive: 74%; with OVCAR-8 ovarian, inactive: 81.8%; with OVCAR-5 ovarian, inactive: 114%; in the experiment on OVCAR-4 ovarian it was inactive: 65.7%; in the experiment with SK-OV-3 ovarian, inactive: 95.5%; in the experiment with IGROV1 ovarian it was inactive: 90.9%. Also, the results for the growth in the experiment with OVCAR-3 ovarian and with HS 578T breast were inactive: 86.1% and inactive: 85.4%, respectively.

For the compound `COP(=O)(OC)N1CC1c1ccccc1` (centres undefined), the growth with SK-MEL-2 melanoma is inactive: 112%; with EKVX NSCLC it was inactive: 105%; with SN12C renal, inactive: 90.1%; in the experiment on UO-31 renal, inactive: 95%; in the experiment with TK-10 renal, inactive: 118%; in the experiment with ACHN renal, inactive: 97.4%. The growth in the experiment on CAKI-1 renal was inactive: 97.3%; in the experiment with A498 renal, inactive: 97.9%; in the experiment with HL-60(TB) leukemia it was inactive: 89.3%; in the experiment with CCRF-CEM leukemia it was inactive: 104%; in the experiment with MOLT-4 leukemia, inactive: 104%; with SR leukemia, inactive: 61.6%. In addition, the growth with RPMI-8226 leukemia is inactive: 106%; in the experiment with OVCAR-8 ovarian it was inactive: 101%; in the experiment on OVCAR-5 ovarian, inactive: 104%; in the experiment on OVCAR-4 ovarian, inactive: 108%; in the experiment on SK-OV-3 ovarian it was inactive: 114%; in the experiment with IGROV1 ovarian, inactive: 120%. Besides, the growth with OVCAR-3 ovarian was inactive: 125%; with HS 578T breast it was inactive: 104%.

Consider `CSc1ccc(Nc2c([N+](=O)[O-])cc([N+](=O)[O-])cc2[N+](=O)[O-])cc1`, for which the growth with SK-MEL-2 melanoma was inactive: 104%; in the experiment with EKVX NSCLC, inactive: 76.5%; in the experiment with SN12C renal, inactive: 53%; with UO-31 renal, inactive: 37.3%; with TK-10 renal, inactive: 82.2%; in the experiment with ACHN renal, inactive: 54.1%. In addition, the growth with CAKI-1 renal was inactive: 62.5%; in the experiment on A498 renal it was active: -9.7%; in the experiment with HL-60(TB) leukemia, inactive: 63.7%; in the experiment with CCRF-CEM leukemia, inactive: 30%; in the experiment with MOLT-4 leukemia, inactive: 54.8%; in the experiment with SR leukemia, inactive: 16.9%. Besides, the growth in the experiment on RPMI-8226 leukemia was active: -7.99%; in the experiment on OVCAR-8 ovarian it was inactive: 40.9%; in the experiment with OVCAR-5 ovarian, inactive: 66.8%; in the experiment with OVCAR-4 ovarian, inactive: 31%; in the experiment on SK-OV-3 ovarian it was inactive: 83.4%; with IGROV1 ovarian it was inactive: 28.9%. Moreover, the growth with OVCAR-3 ovarian is active: -13.8%; in the experiment with HS 578T breast, inactive: 74.7%.

Regarding `Clc1ccc(P(Cl)Cl)cc1`, the growth is inactive: 120% in the experiment on SK-MEL-2 melanoma; inactive: 109% with EKVX NSCLC; inactive: 98.9% in the experiment on SN12C renal; inactive: 89.8% with UO-31 renal; inactive: 107% with TK-10 renal; inactive: 95.7% in the experiment on ACHN renal. The growth in the experiment on CAKI-1 renal was inactive: 90.9%; with A498 renal it was inactive: 95.1%; in the experiment with HL-60(TB) leukemia, inactive: 72.5%; with CCRF-CEM leukemia, inactive: 93.4%; with MOLT-4 leukemia, inactive: 93.9%; in the experiment with SR leukemia, inactive: 93.9%. Also, the growth in the experiment with RPMI-8226 leukemia is inactive: 118%; with OVCAR-8 ovarian it was inactive: 96.9%; in the experiment with OVCAR-5 ovarian it was inactive: 88.9%; with OVCAR-4 ovarian, inactive: 105%; in the experiment on SK-OV-3 ovarian, inactive: 111%; with IGROV1 ovarian, inactive: 106%. The growth in the experiment on OVCAR-3 ovarian was inactive: 116%; in the experiment on HS 578T breast it was inactive: 120%.
